In patent publication US4517002A (priority 1983, dated 1985):

Legend:
urease [1] = details: 800 micrograms test compound + 42.8 mg urea in 20 g air-dry soil (Cazenovia sandy loam, pH 7.2), 25° C., three days, triplicate
urease [2] = details: 800 micrograms test compound + 42.8 mg urea in 20 g air-dry soil (Plano silt loam, pH 5.4), 25° C., three days, triplicate

In the case of `NP(N)(=O)OC(CCl)CCl`, the “% Inhibition Cazenovia Soil” value (urease [1]) is reported as 72% and the “% Inhibition Wisconsin Soil” value (urease [2]) is reported as 49%.
